Assay results reported in PMC7689490, “Designed CXCR4 mimic acts as a soluble chemokine receptor that blocks atherogenic inflammation by agonist-specific targeting” (Nature Communications, 2020).
Values joined by “and” are separate entries in the source; they are usually repeats but may differ in a detail not shown here. Equal values may be shown once.

These substances were tested against Fluos-msR4M-L1 (human) (assay: other fluorescence titration; Fluos-labelled ectodomain peptide at 5 nM titrated with unlabelled MIF or MIF peptide; 10 mM sodium phosphate, pH 7.4, 1% HFIP; emission at 522 nm; apparent KD, 1/1 binding model).

Substance	Kd
MIF(13-27) (peptide)	> 20 µM
MIF(38-60) (peptide)	> 20 µM
MIF(18-32) (peptide)	> 20 µM
MIF(76-90) (peptide)	> 20 µM
MIF(38-64) (peptide)	> 20 µM
MIF(23-38) (peptide)	> 20 µM
MIF(101-115) (peptide)	> 20 µM
MIF(28-43) (peptide)	> 20 µM

Continued, values first:

Kd	Substance
> 20 µM	MIF(81-94) (peptide)
> 5 µM	MIF(50-60) (peptide)
> 20 µM	MIF(69-90) (peptide)
> 20 µM	MIF(2-16) (peptide)
> 20 µM	MIF(86-100) (peptide)
> 10 µM	MIF(82-95) (peptide)
> 10 µM	MIF(91-105) (peptide)

The substances below were run against MIF-specific human CXCR4 mimic-ECL1[97–110]-6-Ahx-12-Ado-ECL2[182–196] (msR4M-L1) (human) (UniProt P61073) (assay: other fluorescence titration; self-assembly: Fluos-labeled peptide titrated with the same peptide unlabeled; 10 mM sodium phosphate, pH 7.4, 1% HFIP; emission at 522 nm; apparent KD).

Kd	Substance
0.197 µM and 0.103 µM and 0.126 µM	MIF-specific human CXCR4 mimic-ECL1[97–110]-6-Ahx-12-Ado-ECL2[182–196] (msR4M-L1) (from UniProt P61073 97-110; P61073 182-196) (designed binder)

Each substance was assayed against TAMRA-msR4M-L1 (N-terminally 5(6)-carboxytetramethylrhodamine-labelled msR4M-L1) (human) (UniProt P61073) (assay: MST; TAMRA-msR4M-L1 at 100 nM with MIF or CXCL12 in serial dilution; 20 mM sodium phosphate, pH 7.2, Tween-20; 37 °C; MST-on time 1.5 s; apparent KD).

Kd	Substance
> 3.12 µM	CXC-motif chemokine ligand 12 (CXCL12), recombinant (from UniProt P48061-2 22-89)

Each substance was assayed against Fluos-msR4M-L2ox (fluorescein-labelled, disulfide-bridged msR4M-L2) (human) (UniProt P61073) (assay: other fluorescence titration; Fluos-labelled CXCR4 ectodomain peptide at 5 nM titrated with unlabelled MIF, MIF(10xAla), CXCL12 or MIF peptide fragments; 10 mM sodium phosphate, pH 7.4, 1% HFIP; emission at 522 nm; apparent KD, 1/1 binding model).

Kd	Substance
0.0548 µM	CXC-motif chemokine ligand 12 (CXCL12), recombinant (from UniProt P48061-2 22-89)

These substances were tested against Fluos-msR4M-L1ox (fluorescein-labelled, disulfide-bridged msR4M-L1) (human) (UniProt P61073) in the same assay as above.

Kd	Substance
0.0846 µM	CXC-motif chemokine ligand 12 (CXCL12), recombinant (from UniProt P48061-2 22-89)

What follows are substances tested against Fluos-msR4M-L1 (human) (assay: other fluorescence titration; as a1, but Fluos-msR4M-L1 at 10 nM (rows with an asterisk in Supplementary Table 2); apparent KD).

Kd	Substance
> 20 µM	MIF(51-67) (peptide)
> 20 µM	MIF(60-74) (peptide)
